Earlier results as cited in patent US20220280646A1, “COMPOSITIONS AND METHODS INVOLVING POLYMER, SOLVENT AND HIGH VISCOSITY LIQUID CARRIER MATERIAL” (DURECT CORPORATION, priority 2013, published 2022).

Settings: 2 mg oral; cited from earlier work

SMILES: Cc1nc2n(c(=O)c1CCN1CCC(c3noc4cc(F)ccc34)CC1)CCCC2 [Risperdal, risperidone]
- average Cmax for risperidone: 181 ng/mL
